The values that follow are results of earlier work, collected in article PMC6222470.

The target in the series is histone H4 H4K5acK8ac peptide (Homo sapiens) (UniProt P62805).

By Kd is commonly meant the equilibrium constant for the complex coming apart. Take BRDT BD1 (from UniProt Q58F21): the Kd is 13 µM.
